These results are taken from publication PMC8602566 (Frontiers in Oncology, 2021).

The target in the test is T1, HDAC10 (Homo sapiens, UniProt Q969S8).
T1 sequence (Q969S8 1-669): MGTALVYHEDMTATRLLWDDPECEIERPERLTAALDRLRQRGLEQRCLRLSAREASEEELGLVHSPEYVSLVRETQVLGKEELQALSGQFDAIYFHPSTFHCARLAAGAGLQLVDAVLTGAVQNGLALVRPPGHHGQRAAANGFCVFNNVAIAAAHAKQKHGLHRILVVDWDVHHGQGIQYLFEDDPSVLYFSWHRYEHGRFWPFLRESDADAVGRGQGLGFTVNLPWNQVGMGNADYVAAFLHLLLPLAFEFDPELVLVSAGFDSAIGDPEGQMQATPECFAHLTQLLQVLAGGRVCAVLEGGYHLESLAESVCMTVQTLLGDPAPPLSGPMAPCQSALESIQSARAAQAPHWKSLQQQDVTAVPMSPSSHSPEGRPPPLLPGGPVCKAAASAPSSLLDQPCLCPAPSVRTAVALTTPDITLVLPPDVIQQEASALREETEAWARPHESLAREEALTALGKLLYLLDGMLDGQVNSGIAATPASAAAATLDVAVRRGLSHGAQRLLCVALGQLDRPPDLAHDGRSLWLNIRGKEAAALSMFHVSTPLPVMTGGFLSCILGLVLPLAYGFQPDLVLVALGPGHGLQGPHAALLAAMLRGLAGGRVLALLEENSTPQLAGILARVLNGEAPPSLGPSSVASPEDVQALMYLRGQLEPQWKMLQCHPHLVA
The test can be described thus: HDACs inhibition assay, HDAC10.

What is called IC50 is the concentration that inhibits the measured activity by half. Low values mean higher potency, high ones lower potency. In turn, `O=C(CCCCCCC(=O)Nc1ccccc1)NO` [Vorinostat, suberoylanilide hydroxamic acid, reference compound] had an IC50 of 760 nM.
